Assay results taken from ChEMBL document CHEMBL1255169, “Synthesis, structure-affinity relationships, and radiolabeling of selective high-affinity 5-HT4 receptor ligands as prospective imaging probes for positron emission tomography” (J Med Chem, 2010).

Sequences of proteins named here, by UniProt entry; tags and fusion partners are left off. A change or cut given only in a name is not applied to a line headed by its entry.
UniProt Q13639: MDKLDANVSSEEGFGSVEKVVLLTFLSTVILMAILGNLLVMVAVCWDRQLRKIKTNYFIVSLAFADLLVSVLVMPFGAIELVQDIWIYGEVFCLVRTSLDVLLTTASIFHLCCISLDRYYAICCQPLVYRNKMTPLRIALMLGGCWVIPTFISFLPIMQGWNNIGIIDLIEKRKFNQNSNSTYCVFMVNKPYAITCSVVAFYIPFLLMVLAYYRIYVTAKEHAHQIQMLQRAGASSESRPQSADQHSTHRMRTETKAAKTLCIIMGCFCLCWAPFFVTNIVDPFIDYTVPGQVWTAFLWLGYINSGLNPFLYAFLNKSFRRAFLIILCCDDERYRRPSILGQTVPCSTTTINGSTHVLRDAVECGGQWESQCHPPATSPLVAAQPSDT
UniProt P18901, whole entry: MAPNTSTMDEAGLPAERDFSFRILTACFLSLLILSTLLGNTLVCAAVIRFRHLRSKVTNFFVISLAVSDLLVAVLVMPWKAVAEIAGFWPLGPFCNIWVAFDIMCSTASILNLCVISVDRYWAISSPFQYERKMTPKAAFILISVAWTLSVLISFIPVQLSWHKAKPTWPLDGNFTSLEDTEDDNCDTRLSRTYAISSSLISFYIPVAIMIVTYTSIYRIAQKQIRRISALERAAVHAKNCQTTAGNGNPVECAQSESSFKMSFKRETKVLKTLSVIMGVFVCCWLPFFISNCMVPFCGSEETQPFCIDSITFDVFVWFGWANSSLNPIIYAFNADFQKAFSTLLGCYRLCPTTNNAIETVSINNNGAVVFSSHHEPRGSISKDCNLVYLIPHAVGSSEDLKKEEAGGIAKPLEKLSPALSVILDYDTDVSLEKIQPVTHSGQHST
UniProt P28566: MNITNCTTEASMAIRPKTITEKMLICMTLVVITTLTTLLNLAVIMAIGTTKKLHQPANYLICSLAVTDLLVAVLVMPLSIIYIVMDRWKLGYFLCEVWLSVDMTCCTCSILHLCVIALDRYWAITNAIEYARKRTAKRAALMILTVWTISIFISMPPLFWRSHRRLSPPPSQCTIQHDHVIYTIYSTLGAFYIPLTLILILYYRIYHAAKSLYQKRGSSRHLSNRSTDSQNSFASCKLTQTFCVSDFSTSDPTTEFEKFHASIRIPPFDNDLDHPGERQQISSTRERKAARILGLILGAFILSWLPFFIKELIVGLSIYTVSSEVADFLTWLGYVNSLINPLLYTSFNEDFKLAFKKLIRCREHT
UniProt P47747, whole entry: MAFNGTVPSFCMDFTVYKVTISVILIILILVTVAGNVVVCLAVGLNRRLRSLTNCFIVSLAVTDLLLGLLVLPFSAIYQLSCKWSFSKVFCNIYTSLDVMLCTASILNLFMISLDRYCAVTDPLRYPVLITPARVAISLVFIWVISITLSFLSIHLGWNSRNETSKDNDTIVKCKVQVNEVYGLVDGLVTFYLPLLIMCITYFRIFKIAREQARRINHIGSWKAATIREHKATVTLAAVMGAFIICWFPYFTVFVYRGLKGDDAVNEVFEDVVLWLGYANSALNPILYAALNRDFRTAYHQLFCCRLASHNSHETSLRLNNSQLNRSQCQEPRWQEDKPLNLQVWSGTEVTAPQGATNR
UniProt P11229: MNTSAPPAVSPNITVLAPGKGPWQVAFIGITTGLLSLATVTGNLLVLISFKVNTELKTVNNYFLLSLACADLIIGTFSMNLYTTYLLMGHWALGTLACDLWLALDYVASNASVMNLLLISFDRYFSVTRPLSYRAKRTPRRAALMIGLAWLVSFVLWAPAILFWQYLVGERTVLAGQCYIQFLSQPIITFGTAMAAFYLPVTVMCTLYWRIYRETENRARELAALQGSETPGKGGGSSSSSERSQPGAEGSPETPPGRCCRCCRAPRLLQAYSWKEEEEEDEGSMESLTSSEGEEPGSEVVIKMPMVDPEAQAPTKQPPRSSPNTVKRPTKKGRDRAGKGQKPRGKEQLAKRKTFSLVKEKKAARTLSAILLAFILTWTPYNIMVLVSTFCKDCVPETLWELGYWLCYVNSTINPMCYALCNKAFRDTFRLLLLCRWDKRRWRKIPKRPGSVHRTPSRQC
UniProt P41145: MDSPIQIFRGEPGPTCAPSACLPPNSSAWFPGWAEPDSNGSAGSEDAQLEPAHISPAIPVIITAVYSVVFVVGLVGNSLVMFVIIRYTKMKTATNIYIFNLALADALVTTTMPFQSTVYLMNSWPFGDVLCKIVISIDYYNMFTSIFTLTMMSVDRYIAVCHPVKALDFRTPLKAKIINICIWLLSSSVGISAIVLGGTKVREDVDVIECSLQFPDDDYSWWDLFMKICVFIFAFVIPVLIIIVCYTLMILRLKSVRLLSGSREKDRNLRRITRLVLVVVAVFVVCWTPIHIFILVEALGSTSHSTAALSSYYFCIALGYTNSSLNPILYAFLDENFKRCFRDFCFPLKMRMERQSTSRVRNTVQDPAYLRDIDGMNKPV

Key:
[1] = biological target: T1, 5-hydroxytryptamine receptor 4 (Homo sapiens, UniProt Q13639); experiment: Agonist activity at 5HT4 receptor expressed in HEK293/L9 cells by cAMP assay; assay type: functional, cell-based
[2] = biological target: T1, 5-hydroxytryptamine receptor 4; experiment: Displacement of [3H]GR113808 from human recombinant 5HT4 receptor expressed in HEK293 cells; assay type: cell-based
[3] = biological target: D(1A) dopamine receptor (Rattus norvegicus, UniProt P18901); experiment: Binding affinity to rat dopamine D1 receptor
[4] = biological target: 5-hydroxytryptamine receptor 1E (Homo sapiens, UniProt P28566); experiment: Binding affinity to human 5-HT1E receptor
[5] = biological target: Histamine H2 receptor (Cavia porcellus, UniProt P47747); experiment: Binding affinity to guinea pig histamine H2 receptor
[6] = biological target: Muscarinic acetylcholine receptor M1 (Homo sapiens, UniProt P11229); experiment: Binding affinity to human muscarinic M1 receptor
[7] = biological target: Kappa-type opioid receptor (Homo sapiens, UniProt P41145); experiment: Binding affinity to human kappa opioid receptor

Structure (SMILES)	EC50 [1] [µM]	Ki [2] [µM]	Ki [3] [µM]	Ki [4] [µM]	Ki [5] [µM]	Ki [6] [µM]	Ki [7] [µM]
CCCCN1CCC(COC(=O)c2ccc(N)cc2OC)CC1	0.000178	0.05					
CCCCN1CCC(COC(=O)c2cc(F)c(N)c3c2OCCO3)CC1			> 10	> 10	> 10	> 10	> 10
